Earlier results, collected in US10231995B2, “Selenium-containing compositions and uses thereof” (SELO MEDICAL GMBH, priority 2001, dated 2019).

System: animals

[Se] [selenium]
selenium content of animal feed at which symptoms of intoxication occur: 5 to 10 μg selenium/g
